The assay concerns the target T1, KXα3β4R2 cells (HEK cells expressing rat α3 and β4 nicotinic receptor subunits) (Rattus norvegicus, UniProt P04757+P12392).
T1 construct: expressed in transfected cells; host or cells: HEK cells (KXα3β4R2)
The assay is classed as cell-based. Particulars: fractions of E. anthonyi alkaloid extract.

Sequences of proteins named here, by UniProt entry; tags and fusion partners are left off. Residues count along the entry.
UniProt P04757, 26-499: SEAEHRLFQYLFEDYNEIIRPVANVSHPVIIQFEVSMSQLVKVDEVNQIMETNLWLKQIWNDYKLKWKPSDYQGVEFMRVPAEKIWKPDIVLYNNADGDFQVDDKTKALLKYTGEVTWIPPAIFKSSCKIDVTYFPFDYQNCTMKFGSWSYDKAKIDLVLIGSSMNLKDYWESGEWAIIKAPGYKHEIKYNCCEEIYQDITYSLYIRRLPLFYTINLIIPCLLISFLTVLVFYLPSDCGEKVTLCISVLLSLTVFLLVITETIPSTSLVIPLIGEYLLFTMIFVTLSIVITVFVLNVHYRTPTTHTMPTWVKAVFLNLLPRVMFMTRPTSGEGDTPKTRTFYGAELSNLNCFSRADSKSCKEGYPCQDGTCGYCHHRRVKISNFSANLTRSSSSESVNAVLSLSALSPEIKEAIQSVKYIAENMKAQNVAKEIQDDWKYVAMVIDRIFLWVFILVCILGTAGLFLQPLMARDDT
UniProt P12392, 21-495: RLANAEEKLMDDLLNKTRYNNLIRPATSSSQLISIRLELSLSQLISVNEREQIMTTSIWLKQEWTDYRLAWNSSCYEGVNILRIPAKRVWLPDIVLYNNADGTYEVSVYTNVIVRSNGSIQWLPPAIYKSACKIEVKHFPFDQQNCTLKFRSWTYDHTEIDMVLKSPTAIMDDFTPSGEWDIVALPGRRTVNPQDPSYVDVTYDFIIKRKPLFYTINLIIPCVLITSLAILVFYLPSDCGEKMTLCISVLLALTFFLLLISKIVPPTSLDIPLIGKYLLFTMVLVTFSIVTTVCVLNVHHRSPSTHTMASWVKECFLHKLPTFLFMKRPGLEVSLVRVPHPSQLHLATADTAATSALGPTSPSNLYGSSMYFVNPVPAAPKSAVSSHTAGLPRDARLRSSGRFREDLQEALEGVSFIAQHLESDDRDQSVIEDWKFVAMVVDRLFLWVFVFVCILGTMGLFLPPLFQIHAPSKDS

“Also recorded” adds a separate entry of the source.

With `Clc1ccc(C2CC3CCC2N3)cn1` (stereo not shown) [Compound 1, epibatidine], the “nicotinic-agonist activity of isolated fraction” value was “greatest activity; also recorded: major activity of the three”.

The record behind these values is patent publication US9902734B2, “Nicotinic acetylcholine receptor agonists” (priority 2010, dated 2018).
